## Yeast mating assay B: variants of the scFv Ab-14

Values reported by Li et al. 2023, doi:10.1038/s41467-023-39022-2 (FLAb copy).

Target: peptide PDVDLGDISGINAS, taken from heptad repeat 2 (HR2) of SARS-CoV-2 spike.

The variants keep the light chain, the linker and the frameworks of Ab-14 (scFv order VH, the linker GGGGSGGGGSGGGGS, VL).
VH: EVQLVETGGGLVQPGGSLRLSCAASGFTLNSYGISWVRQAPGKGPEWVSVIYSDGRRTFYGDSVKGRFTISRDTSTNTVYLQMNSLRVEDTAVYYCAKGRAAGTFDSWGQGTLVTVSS
VL: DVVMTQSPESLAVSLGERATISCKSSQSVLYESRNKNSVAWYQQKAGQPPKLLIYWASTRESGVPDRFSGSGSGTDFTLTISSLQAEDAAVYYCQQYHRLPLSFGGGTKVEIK

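Designed CDR sequences, proposed from the first random library and measured here. Group labels follow the data file (Ctrl: baseline library sampled from a position-specific scoring matrix, with some repeated check sequences; GPLM: also part of the Gaussian process libraries; Gibbs: Gibbs sampling; a sequence that several methods proposed may carry one label only). AlphaSeq pools MATa yeast showing the antibodies with MATalpha yeast showing the peptide. Binding brings cells together so that they mate, and sequencing counts the barcode pairs among the diploids. The ratio of observed to expected reads was calibrated, replicate by replicate, on BCL2-family standards whose Kd was known from biolayer interferometry. The assay was run in six technical replicates.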

Variants are written as CDR1, CDR2 and CDR3 of the heavy chain (limits as in the source). Parent: GFTLNSYGIS, VIYSDGRRTFYGDSVK, GRAAGTFDS. Scale: log10 of Kd in nM, estimated from mating counts; low values are strong binders. "n.d." marks a missing value. The strain was present, yet no cells mated with the target were sequenced in that replicate, which points to weak or no binding. Three control strains display no target. For all heavy chain designs, 1% of the pairings with them gave a signal, with a median of 2.08 and one signal in twenty below 0.84, so weak values seen in few replicates may be background. For each scFv, signals with the empty controls are counted beside the result, with their mean in brackets. The range of this assay differs from that of the first round, and the authors advise against merging the two. Some sequences occur more than once in the pool; their replicates are listed entry by entry, parted by semicolons. The authors' rule: three or more of the six replicates give a measured affinity, fewer mean a poor binder. Of ten entries with the parent sequence, four were seen in most replicates (averages 0.34 to 2.37), three in one and three in none, so single entries are noisy.

| # | CDR-H1 | CDR-H2 | CDR-H3 | group | replicates, log10 nM | signal with controls |
|---|---|---|---|---|---|---|
| 1 | KFTLNSYGIS | VIYSDGRRTFYGDNFK | GRAAGRFDS | Ctrl | n.d. / 2.67 / n.d. / n.d. / n.d. / n.d. | 0/18 |
| 2 | GNTLNSYGIS | VIYSDGLRTFYHDSVK | GRAAGTFDS | Ctrl | 0.90 / 1.70 / 2.13 / 0.81 / 1.26 / 0.98 | 2/18 (1.32) |
| 3 | GLTLNEYGIS | VITSDDRRTFYGDSVK | GRAAGTFPL | Ctrl | n.d. / n.d. / n.d. / n.d. / n.d. / n.d. | 0/18 |
| 4 | GFTLNSYGIS | VIYSDGRRTFYADSVK | GRGAATFDS | Ctrl | 2.69 / 2.56 / 1.96 / 1.89 / 4.31 / 2.08 | 2/18 (3.34) |
| 5 | GFTLNSYGIS | VIYSDGRRTYYHDSVK | GRAHGTFDS | Ctrl | n.d. / n.d. / n.d. / n.d. / n.d. / n.d. | 0/18 |
| 6 | GFTLNSYGIS | VIYSDGRRTFYGDSVK | GRAAGTDDS | Ctrl | n.d. / n.d. / n.d. / n.d. / n.d. / n.d. | 0/18 |
| 7 | GVNLNSYGIS | VIYSDGRRTFYGDSVK | GRAAGTFDS | Ctrl | 0.83 / 1.26 / 0.82 / 0.72 / 0.99 / 1.07 | 0/18 |
| 8 | GFSLNSYGIS | VIYSDGLRTFYGDSVK | GRAAGTFDS | Ctrl | n.d. / 0.57 / n.d. / n.d. / 1.47 / -0.29 | 0/18 |
| 9 | GFTLNSYGIS | VIYSDGRRTFYGDSVK | GAAAGTFDV | Ctrl | n.d. / 1.81 / 2.75 / 1.61 / 2.21 / 2.04 | 1/18 (3.09) |
| 10 | GFTLQSYGIS | VIYSDGRRTFYGDSVR | GRAAGTFDT | Ctrl | 1.38 / 0.92 / 1.30 / 2.14 / 1.18 / 1.23 | 0/18 |
| 11 | GFTLESYGIS | VIYSDGLRTFYVDSVK | GSAAGTFES | Ctrl | n.d. / n.d. / n.d. / n.d. / n.d. / n.d. | 0/18 |
| 12 | GFTLNQYGIS | VIYSDGRRTFYGDSVK | GRAAGTFDS | Ctrl | 1.53 / 0.71 / 0.80 / 0.57 / 0.81 / 1.17 | 0/18 |
| 13 | GFDLNSYGIS | VIYSDGRRTAYEDSVK | GRAAGTFDS | Ctrl | 0.32 / 0.16 / -0.03 / 0.10 / 0.31 / 0.42 | 0/18 |
| 14 | GFTLNSYGIS | VIYSDGRRTFYGDSVK | GRAAGTFNS | Ctrl | n.d. / n.d. / n.d. / n.d. / n.d. / n.d. | 0/18 |
| 15 | GFPLESYGIS | VIYSDGKRTFYGDSVK | GEAAGTFDS | Ctrl | 0.34 / 0.14 / -0.14 / -0.31 / 0.60 / 0.55 | 1/18 (1.33) |
| 16 | GETRNSYGIS | VIYSDGRRTFYGDSVK | GRAALTFKS | Ctrl | n.d. / n.d. / n.d. / n.d. / n.d. / n.d. | 0/18 |
| 17 | GFTLNSYGIS | VIYSDGRRTFYIDSVK | GREAGTFDS | Ctrl+GPLM_Gibbs | 1.70 / 1.64 / 1.01 / 0.75 / 0.91 / 1.51; 1.52 / 1.30 / 1.01 / 0.72 / 0.11 / n.d. | 0/36 |
| 18 | GFTLNSYGIS | VIYSDGLRVFYGDSVK | GTAIGTFDS | Ctrl | n.d. / n.d. / n.d. / n.d. / n.d. / n.d. | 0/18 |
| 19 | GFTLNSYGIS | VIYSDGWRTFYGDSVK | GRAKGTFDS | Ctrl | n.d. / n.d. / n.d. / n.d. / n.d. / n.d. | 0/18 |
| 20 | GFTLNSYGIS | VIYSDGRRTFYGDDVK | GRLAGTADS | Ctrl | n.d. / n.d. / n.d. / n.d. / n.d. / n.d. | 1/18 (2.30) |
| 21 | GFTLNSYGCS | VIYSDGLRTSYGDSVK | GRAAGTFDS | Ctrl | 0.20 / n.d. / 0.22 / n.d. / -0.28 / n.d. | 0/18 |
| 22 | HFTLNFYGIS | VIYSDGKRTFYGDSVK | GRATGTFDS | Ctrl | n.d. / n.d. / n.d. / n.d. / n.d. / n.d. | 0/18 |
| 23 | GFTLNSYGGS | VIYSDGRRTFYGDSVK | GRTAGTFDS | Ctrl | n.d. / n.d. / n.d. / n.d. / n.d. / n.d. | 0/18 |
| 24 | GFTLNSYGIS | VIYADGRRTFYGDSVK | GRAAGTFDG | Ctrl | 1.02 / 0.83 / n.d. / 0.59 / 1.04 / 1.75 | 0/18 |
| 25 | GFTLNSQGIS | VIYSDGRRTFYGDDVR | GTAAGRFDS | Ctrl | n.d. / n.d. / n.d. / n.d. / n.d. / n.d. | 0/18 |
| 26 | GFSLQKYGIS | VIYSDGRRTFYGDSVK | GRLAGTFDS | Ctrl | n.d. / 2.17 / 1.67 / n.d. / 2.29 / 2.55 | 0/18 |
| 27 | GFTLNSYGIS | VIYSDGRRTFYGDSVK | GRAIGTFDY | Ctrl | n.d. / n.d. / n.d. / n.d. / n.d. / n.d. | 0/18 |
| 28 | GFTLNSYGIS | VIYSDGRRVFYGDFVK | GRSAGTFDS | Ctrl | n.d. / n.d. / n.d. / n.d. / n.d. / n.d. | 0/18 |
| 29 | GITLNDYGIS | VIYSDGMRTFYGDSVK | GRAAGTFDS | Ctrl | 0.11 / -0.01 / -0.75 / 0.16 / 0.16 / 0.04 | 1/18 (2.43) |
| 30 | GFTPNSYGIS | VIYSDGRRTFYGDSVK | GRAGGTFDS | Ctrl | n.d. / n.d. / n.d. / n.d. / n.d. / n.d. | 0/18 |
| 31 | LFTLNSYGIS | VIYSDGRRTFYGDSVK | GRAAGTFSS | Ctrl | n.d. / n.d. / n.d. / n.d. / n.d. / n.d. | 0/18 |
| 32 | RFTLNSYGIS | VIYSDGRRTFYGDFVK | GRLAGTFDS | Ctrl | n.d. / n.d. / n.d. / n.d. / n.d. / n.d. | 0/18 |
| 33 | GFTLNSYGIS | VIYSDGRRTEYGDSVK | GRAAGTFFQ | Ctrl | n.d. / n.d. / n.d. / n.d. / n.d. / n.d. | 0/18 |
| 34 | GFTLNMYGIS | VIYSDGRRTFYADKVK | GRAAGTFPS | Ctrl | n.d. / n.d. / n.d. / n.d. / n.d. / n.d. | 0/18 |
| 35 | GFTLNEYGIS | VIYSDGRRTFYGDSVK | GRMAGTFDQ | Ctrl | 1.51 / 0.61 / 0.61 / 0.51 / 0.46 / 0.96 | 0/18 |
| 36 | GFSLNSYGIS | VIYSDGRRTFYGDSVK | GRAAGTFDT | Ctrl | -0.08 / 0.96 / 0.64 / -0.09 / 0.44 / n.d. | 1/18 (2.48) |
| 37 | GFTLNSYGIS | VIYSDGRRTFYGDSVK | GRSAGTWDS | Ctrl | n.d. / 1.38 / n.d. / n.d. / n.d. / n.d. | 0/18 |
| 38 | GFSLNMYGIS | VIYSDGRREFYSDSVK | GRAPGTFDS | Ctrl | 0.76 / 1.66 / n.d. / n.d. / 1.87 / 1.05 | 0/18 |
| 39 | GFTLNSYGIS | VIYSDGRRTAYGDSVK | IRYAGTFDS | Ctrl | n.d. / n.d. / n.d. / n.d. / n.d. / n.d. | 1/18 (1.85) |
| 40 | GFELNSYGIS | VIYSDGRRTFYGDSVK | GRAAGTFRS | Ctrl | n.d. / n.d. / n.d. / n.d. / n.d. / n.d. | 0/18 |
| 41 | GQTLNSYGIS | VIYSDGRRTFYQDSVK | GRAAGTFDS | Ctrl | n.d. / 1.61 / 2.50 / 2.98 / 1.64 / n.d. | 1/18 (1.81) |
| 42 | GETLNSYGIS | VIYSDGMRTFYGDSVK | GRAAGTFDS | Ctrl | n.d. / n.d. / n.d. / n.d. / 1.44 / n.d. | 0/18 |
| 43 | GFTLLSYGIS | VIYSDGRRTFYMDSVE | GSAAGTFDS | Ctrl | n.d. / n.d. / 1.12 / n.d. / n.d. / n.d. | 0/18 |
| 44 | GFTLNDYGIS | VIYSDGRRTFYGNSVK | GSAAGTFDG | Ctrl | 3.32 / 2.00 / 1.71 / n.d. / 2.73 / 3.21 | 1/18 (2.81) |
| 45 | GFTLNKYGIS | VDYSDGRRTFYNDSVK | GRAQGRFDS | Ctrl | n.d. / n.d. / 2.39 / n.d. / n.d. / n.d. | 1/18 (3.46) |
| 46 | GFTLNSYGIS | VIYSDGRRTFYGDSVK | GDAAGTFDL | Ctrl | -0.16 / 0.15 / 0.79 / -0.20 / 0.32 / 0.86 | 1/18 (0.76) |
| 47 | GFTLNSYGIS | VIYSDGSRTFYGPSVK | GRAAGTFDS | Ctrl | n.d. / n.d. / n.d. / n.d. / n.d. / n.d. | 0/18 |
| 48 | GFKLNSYGIS | VIYSDGRRTFYIDSVK | GNAAGTFDL | Ctrl | 0.70 / 1.37 / 1.50 / 0.31 / 0.93 / 0.94 | 0/18 |

The 7 strongest on average among those seen in every replicate, once more:

CDR-H1	CDR-H2	CDR-H3	group	replicates, log10 nM	signal with controls
GITLNDYGIS	VIYSDGMRTFYGDSVK	GRAAGTFDS	Ctrl	0.11 / -0.01 / -0.75 / 0.16 / 0.16 / 0.04	1/18 (2.43)
GFPLESYGIS	VIYSDGKRTFYGDSVK	GEAAGTFDS	Ctrl	0.34 / 0.14 / -0.14 / -0.31 / 0.60 / 0.55	1/18 (1.33)
GFDLNSYGIS	VIYSDGRRTAYEDSVK	GRAAGTFDS	Ctrl	0.32 / 0.16 / -0.03 / 0.10 / 0.31 / 0.42	0/18
GFTLNSYGIS	VIYSDGRRTFYGDSVK	GDAAGTFDL	Ctrl	-0.16 / 0.15 / 0.79 / -0.20 / 0.32 / 0.86	1/18 (0.76)
GFTLNEYGIS	VIYSDGRRTFYGDSVK	GRMAGTFDQ	Ctrl	1.51 / 0.61 / 0.61 / 0.51 / 0.46 / 0.96	0/18
GFTLNQYGIS	VIYSDGRRTFYGDSVK	GRAAGTFDS	Ctrl	1.53 / 0.71 / 0.80 / 0.57 / 0.81 / 1.17	0/18
GVNLNSYGIS	VIYSDGRRTFYGDSVK	GRAAGTFDS	Ctrl	0.83 / 1.26 / 0.82 / 0.72 / 0.99 / 1.07	0/18